Binding of CDR-mutated scFvs to a peptide of the spike HR2 region

Reference: Li et al. 2023, doi:10.1038/s41467-023-39022-2. File: FLAb, binding data.

The target is the same throughout: PDVDLGDISGINAS, from the HR2 region of SARS-CoV-2 spike.

Parent: Ab-14, a human scFv built as VH, the linker GGGGSGGGGSGGGGS, VL. Only the CDRs of the heavy chain vary.
VH: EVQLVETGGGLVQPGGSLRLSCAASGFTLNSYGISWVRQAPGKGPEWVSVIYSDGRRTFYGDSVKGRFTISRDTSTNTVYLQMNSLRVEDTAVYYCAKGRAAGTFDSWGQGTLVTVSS
VL: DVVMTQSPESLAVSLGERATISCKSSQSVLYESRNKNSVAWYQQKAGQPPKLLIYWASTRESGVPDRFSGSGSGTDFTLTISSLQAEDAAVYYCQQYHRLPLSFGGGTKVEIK

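The starting antibody came from a phage panning campaign against this peptide. This is the validation round: designs drawn from the data on random variants, tested in the same kind of assay. Several design methods are mixed in this list. The scFvs were displayed on barcoded MATa yeast, the peptide on MATalpha yeast. Binding brings cells together so that they mate, and sequencing counts the barcode pairs among the diploids. A regression on co-assayed BCL2-family reference pairs converts the normalised counts of each replicate to an apparent Kd. The assay was run in six technical replicates.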

The parent's heavy chain CDRs are GFTLNSYGIS, VIYSDGRRTFYGDSVK, GRAAGTFDS; each variant's own CDRs replace them letter for letter.
Each Kd is an estimate from the mating assay, the geometric mean of the replicates in which the pair was seen; lower is stronger.
"not detected" marks a missing value. The strain was present, yet no cells mated with the target were sequenced in any replicate, which points to weak or no binding.
Values of this round are not directly comparable with the first-round values of the same sequences.
As a blank, each scFv also met three strains without target: over all heavy chain designs, 1% of these pairings were detected, typically at 120 nM and seldom below 7.0 nM.
The authors' rule: three or more of the six replicates give a measured affinity, fewer mean a poor binder.
The parent sequence was in this pool as ten entries: three were never detected, three once, and four in most replicates, with averages from 2.2 nM to 240 nM.

Kd (apparent),replicates with signal,CDR-H1,CDR-H2,CDR-H3
not detected,0/6,GFDLGEYGIS,VIYADGQRFAYAQQFK,GEAGGAFDL
not detected,0/6,GFTADSYGIS,VIYSDGRRTFYGDSVK,GRAAGTALS
37 nM,2/6,GFSLNEYGIS,VIYSDGRRTQYDDSVK,GRAAGTFDS
not detected,0/6,GFTLNEYGIS,VIYSDGRRTFYQDSVK,GTNAITFDS
8.9 nM,6/6,GFFLNDYGIS,VIYSDGRRTFYGDSVK,GSAAGTFDS
9.7 nM,6/6,GFTLNDYGIS,VIYSDGRRTFYKDSVK,GRVAGTFDS
9.5 nM,4/6,GFNMNSYGIS,VIYSDGRRTFYSDSVK,GRAAGTFDS
830 pM,6/6,GFSLNSYGIS,VIYSDGRRTFYGDSVK,GITAGTFDT
not detected,0/6,GFELNSYGGS,VIYADGRRTFYGDSVK,GMVAGTFDL
72 nM,5/6,GFTLNDYGIS,VIYSDGRRTFYGGSVK,GNAGGTFDA
14 nM,4/6,GFSLDEYGVS,VIYADGVRQFYCDDVK,GGIAGTFLY
1.7 µM,1/6,GFTLNSYGIS,VIYSDGMRTFYTDSVK,GAAATTFDS
5.4 nM,6/6,GFELNSYGIS,VIYSDGRRTFYVDSVK,GRVAGTFDT
not detected,0/6,GFNLDSYGIS,VIYSDGRRTAYHDSVK,GRAAVNFDV
32 nM,3/6,GNNLNSYGIS,VIYSDGQRTFYGDSVR,GRAVGTFDD
5.5 nM,6/6,GFDLNEYGIS,VIYADGFRTAYVQQVK,GQHAGSVEV
1.1 nM,6/6,GFDLDEYGIS,VIYADGKRTFYIDSVK,GETAGTFDV
1.1 nM,6/6,GFDLNSYGIS,VIYSDGRRTFYGDMVK,GKTAGTFDD
2.7 nM,6/6,GFSLNSYGIS,VIYSDGRRTFYHDSVK,GRTAGTFDS
1.4 nM,6/6,GFSLNSYGIS,VIYSDGRRTFYGDSVK,GTNAGTFDS
not detected,0/6,GFNLNEYGIS,VIYADGQRTSYIDGVK,GTNRVKGMG
2.8 nM,6/6,GFTLNSYGIS,VIYSDGRRTFYSDSVK,GQIAGTFDS
not detected,0/6,GFDLNSYGIS,VIYSDGRRTFYGDSVK,GRAAGFFWS
1.3 nM,6/6,GFDINEYGIS,VIYADGRRTFYTDSVK,GQNAGTFDS
3.3 nM,6/6,GFDLNSYGIS,VIYSDGRRTFYGDSVK,GRFAGTFDS
not detected,0/6,GFDLNSYGIS,VIYSDGRRTFYEDSVK,GRAAVTFDS
31 nM,4/6,GFQLNDYGIS,VIYSDGRRTFYGDSVK,GRTAGTFDM
1.9 nM,2/6,GFDLNEYGIS,VIYADGKRTAYADKVK,GNQAGTFDV
36 pM,3/6,GFDLNEYGIS,VIYADGSRTAYVDSVK,GNQAGTFDV
1.8 nM,6/6,GFDLNSYGIS,VIYSDGRRTFYGDSVK,GRAAGTFQS
83 nM,6/6,GFTLNDYGIS,VIYSDGRRQQYIDSVK,GRAAGTFDS
320 pM,6/6,GFDLNEYGIS,VIYADGMRTAYSDSVK,GETAGTFDQ
220 pM,6/6,GFDLNEYGIS,VIYADGMRTAYSDDVK,GNNAGTFDV
1.1 nM,6/6,GFDLDEYGIS,VIYADGKRTFYSDSVK,GETAGTFDV
not detected,0/6,GFTLNSYGIS,VIYADGRRTFYGDSNK,GRQFGTNKS
24 nM,6/6,GFKLEEYGIS,VIYADGKRVAYQDKVK,GKHAGMFDV
790 pM,6/6,GFDLEEYGIS,VIYADGRRTAYADSVK,GNNAGTFDV
not detected,0/6,GFFLNEYGIS,VIYSDGRRTFYGDSVK,GRAAVTFDK
660 pM,6/6,GFDLNEYGIS,VIYADGMRTAYSDSVK,GNQAGTFDL
38 nM,5/6,GETLNSYGIS,VIYSDGRRTSYGDSVK,GRAAGTFDS
23 nM,6/6,GFTLNSYGIS,VIYSDGRRTFYGDSVK,GMEAGTFDK
81 nM,6/6,GFTLNDYGIS,VIYSDGRRTFYHDSVK,GRAAGTFES
not detected,0/6,GFTLNSYGIS,VIYSDGRRTGYKDSVK,GRAAGTPDS
480 pM,6/6,GFDLDEYGIS,VIYADGRRTFYIDSVK,GETAGTFDS
not detected,0/6,GFTLDSYGIS,VIYSDGRRTSYGDSVK,GRAASTFDS
not detected,0/6,GFTLNEYGIS,VIYSDGRRTFHTDSVK,WRFAGTFDS
not detected,0/6,GFNLDEYGVS,VIYADGHRTAYVNTVK,GKTGFVLDD
2.1 nM,6/6,GFSLNSYGIS,VIYSDGRRTFYDDSVK,GWLAGTFDS
25 nM,5/6,GFELESYGIS,VIYSDGRRTFYGDSVK,GRAAGTFDS
not detected,0/6,GFDLNSYGIS,VIYSDGRRTFYGDSVK,GRRAGWFNS
24 nM,6/6,GFDLNEYGIS,VIYADGQRTAYADSVK,GNTAGTFDQ
not detected,0/6,GFTLGSYGIS,VIYSDGRRTFYGDSVK,GRAAGQFEH
93 pM,6/6,GFDLDEYGIS,VIYADGVRTAYSDSVK,GQNAGTFDV

The last 7 entries again:

CDR-H1,CDR-H2,CDR-H3,Kd (apparent),replicates with signal
GFNLDEYGVS,VIYADGHRTAYVNTVK,GKTGFVLDD,not detected,0/6
GFSLNSYGIS,VIYSDGRRTFYDDSVK,GWLAGTFDS,2.1 nM,6/6
GFELESYGIS,VIYSDGRRTFYGDSVK,GRAAGTFDS,25 nM,5/6
GFDLNSYGIS,VIYSDGRRTFYGDSVK,GRRAGWFNS,not detected,0/6
GFDLNEYGIS,VIYADGQRTAYADSVK,GNTAGTFDQ,24 nM,6/6
GFTLGSYGIS,VIYSDGRRTFYGDSVK,GRAAGQFEH,not detected,0/6
GFDLDEYGIS,VIYADGVRTAYSDSVK,GQNAGTFDV,93 pM,6/6